Values of other authors in US20260092919A1, “REAGENT FOR MEASURING TYROSINE KINASE ACTIVITY, AND USE THEREOF” (HILO CO. LTD., priority 2022, published 2026).

Chains of the proteins cited; added tags and fusions are not shown. Residues count along the entry.
UniProt P00533, 25-1210: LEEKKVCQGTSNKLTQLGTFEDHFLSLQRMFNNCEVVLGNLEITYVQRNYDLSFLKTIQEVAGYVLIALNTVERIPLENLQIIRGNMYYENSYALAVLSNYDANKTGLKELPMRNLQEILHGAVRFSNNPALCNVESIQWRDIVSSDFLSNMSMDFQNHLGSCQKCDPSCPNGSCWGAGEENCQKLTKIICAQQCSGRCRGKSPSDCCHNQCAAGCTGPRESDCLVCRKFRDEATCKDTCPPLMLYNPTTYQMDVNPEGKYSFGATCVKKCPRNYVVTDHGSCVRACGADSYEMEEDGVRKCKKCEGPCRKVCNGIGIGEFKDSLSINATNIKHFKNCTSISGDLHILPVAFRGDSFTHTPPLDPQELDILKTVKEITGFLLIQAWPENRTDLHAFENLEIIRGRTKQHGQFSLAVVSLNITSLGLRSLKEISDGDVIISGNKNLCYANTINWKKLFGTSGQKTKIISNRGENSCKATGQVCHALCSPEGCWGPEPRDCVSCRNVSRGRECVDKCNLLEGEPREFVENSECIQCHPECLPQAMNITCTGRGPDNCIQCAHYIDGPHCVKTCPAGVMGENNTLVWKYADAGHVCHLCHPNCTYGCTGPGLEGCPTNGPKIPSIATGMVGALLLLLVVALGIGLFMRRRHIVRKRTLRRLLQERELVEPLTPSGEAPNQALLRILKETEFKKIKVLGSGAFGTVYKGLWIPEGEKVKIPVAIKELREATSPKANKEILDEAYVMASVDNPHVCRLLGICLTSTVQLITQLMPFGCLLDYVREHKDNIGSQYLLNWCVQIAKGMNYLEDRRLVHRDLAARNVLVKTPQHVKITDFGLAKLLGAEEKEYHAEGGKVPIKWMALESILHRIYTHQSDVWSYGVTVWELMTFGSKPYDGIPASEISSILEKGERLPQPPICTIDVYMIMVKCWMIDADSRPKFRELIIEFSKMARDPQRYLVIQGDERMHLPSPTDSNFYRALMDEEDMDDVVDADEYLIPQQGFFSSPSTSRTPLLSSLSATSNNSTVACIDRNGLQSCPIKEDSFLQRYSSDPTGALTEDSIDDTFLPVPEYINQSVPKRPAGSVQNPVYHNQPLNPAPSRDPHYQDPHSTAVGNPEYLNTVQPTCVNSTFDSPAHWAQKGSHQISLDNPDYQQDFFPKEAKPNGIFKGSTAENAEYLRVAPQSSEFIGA

Molecular target: EGFR (Homo sapiens, UniProt P00533)
Settings: cited from earlier work

COc1cc2ncnc(Nc3cccc(Cl)c3)c2cc1OC [AG-1478]
IC50: 3 nM
